Chains of the proteins cited; added tags and fusions are not shown.
UniProt O00767, whole entry: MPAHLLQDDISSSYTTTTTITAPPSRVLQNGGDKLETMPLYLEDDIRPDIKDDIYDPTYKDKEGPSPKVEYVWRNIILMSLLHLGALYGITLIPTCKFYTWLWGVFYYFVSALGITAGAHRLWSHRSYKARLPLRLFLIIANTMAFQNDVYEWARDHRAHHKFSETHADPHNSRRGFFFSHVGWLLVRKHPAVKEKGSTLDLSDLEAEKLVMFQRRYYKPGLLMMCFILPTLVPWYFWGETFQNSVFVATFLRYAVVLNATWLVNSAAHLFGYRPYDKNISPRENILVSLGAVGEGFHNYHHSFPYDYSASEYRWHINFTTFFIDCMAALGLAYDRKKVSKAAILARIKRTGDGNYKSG
UniProt Q86SK9, whole entry: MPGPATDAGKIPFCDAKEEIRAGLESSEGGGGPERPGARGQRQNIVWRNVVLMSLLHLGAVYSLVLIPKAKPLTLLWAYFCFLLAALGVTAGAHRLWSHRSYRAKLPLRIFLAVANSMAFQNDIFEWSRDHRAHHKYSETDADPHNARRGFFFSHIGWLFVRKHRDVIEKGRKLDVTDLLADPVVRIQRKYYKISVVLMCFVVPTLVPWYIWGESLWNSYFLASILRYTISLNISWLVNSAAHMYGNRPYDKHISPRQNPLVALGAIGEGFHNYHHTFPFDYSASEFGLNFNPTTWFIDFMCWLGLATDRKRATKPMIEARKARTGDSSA

In patent US10919885B2, “Compounds and uses thereof” (Yumanity Therapeutics, Inc., priority 2018, dated 2021):

Assays:
human SCD1 = human SCD1 (Homo sapiens (Human), UniProt O00767); assay: Yeast growth assay, strain expressing human SCD1 as the sole desaturase (reduced growth as surrogate for SCD inhibition); assay type: cell-based; conditions: read-out: SCD1 IC50; yeast with OLE1 deleted expressing human SCD1 from a plasmid; growth read as OD600 after 40 h at 30° C.; top drug concentration […]
human SCD5 = human SCD5 (Homo sapiens (Human), UniProt Q86SK9); assay: Yeast growth assay, strain expressing human SCD5 as the sole desaturase (reduced growth as surrogate for SCD inhibition); assay type: cell-based; conditions: read-out: SCD5 IC50; yeast with OLE1 deleted expressing human SCD5 from a plasmid; growth read as OD600 after 40 h at 30° C.; top drug concentration […]

IC50 (human SCD1) | IC50 (human SCD5) | Compound
> 45 µM | 21.5 µM | O=C(Nc1cn[nH]c1)c1cc(-c2ccco2)on1
> 45 µM | > 45 µM | O=C(Nc1cn[nH]c1)c1cc(-c2ccccc2)on1
